Here are results for one molecule from article PMC4773904 (The New England journal of medicine, 2015).

For the assay, the system named is Ba/F3 cells expressing EML4-ALK L1198F. Description: Ba/F3 cell-survival assay. It counts as cell-based.

Regarding `C[C@@H](Oc1cc(-c2cnn(C3CCNCC3)c2)cnc1N)c1c(Cl)ccc(F)c1Cl` [crizotinib], the “Sensitivity in cell-survival assay (in words)” value is “particularly sensitive”.
